# Measurements from PMC3597730, “Novel Phenolic Inhibitors of Small/Intermediate-Conductance Ca^2+-Activated K^+ Channels, KCa3.1 and KCa2.3” (PLoS ONE, 2013).
# Target: T1, cloned human KCa3.1 channel (Homo sapiens, UniProt O15554)
# T1 construct: expressed in transfected cells; gift of Khaled Houamed, University of Chicago
# Experiment: Inside-out patch recordings from hKCa3.1-overexpressing HEK293 cells
# Assay type: biochemical
# Settings: inside-out patches; compound 1 µM
smiles,measurement,value
"Clc1ccccc1C(c1ccccc1)(c1ccccc1)n1cccn1 [TRAM-34, 1-[(2-chlorophenyl) (diphenyl)methyl]-1H-pyrazole, reference compound]",hKCa3.1 blocking effect (in words),complete channel blockade; also recorded: complete block

# “Also recorded” adds a separate entry of the source.
